Consider two compounds from ChEMBL document CHEMBL5537131, “Discovery of 4-aminophenylacetamide derivatives as intestine-specific farnesoid X receptor antagonists for the potential treatment of nonalcoholic steatohepatitis” (Eur J Med Chem, 2024).

Active and inactive are the calls of the source. No cut-off for these calls is given here.

For one test, the system named is Mus musculus. In words: Anti-NASH activity in HFD-induced nonalcoholic steatohepatitis C57BL/6J mouse model assessed as reduction in total cholesterol level in liver at 50 mg/kg, po administered daily for 4 weeks. It is filed as functional, organism-based.
In test [1] the target is T1, Peroxisome proliferator-activated receptor delta (Homo sapiens) (UniProt Q03181).
T1 sequence (whole entry): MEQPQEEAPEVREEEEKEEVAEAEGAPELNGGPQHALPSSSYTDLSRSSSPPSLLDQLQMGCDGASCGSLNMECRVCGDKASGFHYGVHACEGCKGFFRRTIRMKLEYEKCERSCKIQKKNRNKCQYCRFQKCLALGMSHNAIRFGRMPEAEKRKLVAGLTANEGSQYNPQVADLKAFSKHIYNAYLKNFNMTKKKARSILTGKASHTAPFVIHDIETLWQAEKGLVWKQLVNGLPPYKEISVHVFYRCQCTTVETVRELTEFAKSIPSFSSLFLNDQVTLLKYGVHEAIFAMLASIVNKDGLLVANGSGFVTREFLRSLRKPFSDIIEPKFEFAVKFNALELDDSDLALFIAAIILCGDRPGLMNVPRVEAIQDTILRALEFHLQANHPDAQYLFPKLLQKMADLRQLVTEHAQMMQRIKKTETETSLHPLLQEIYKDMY
The test can be described thus: Antagonist activity against PPARbeta (unknown origin) by dual-luciferase reporter gene assay. Background: Reporter assays use an easily measured gene product as a stand-in for the process of interest.

`C[C@H](CCC(=O)NCCS(=O)(=O)O)[C@H]1CC[C@H]2[C@@H]3[C@@H](O)C[C@@H]4C[C@H](O)CC[C@]4(C)[C@H]3CC[C@]12C`: the outcome with Mus musculus was Active.

In the case of `Cc1cccc(CN(C(=O)C2CCCC2)c2ccc(CC(=O)NCc3ccc4c(c3)OCO4)cc2)c1`, the outcome in test [1] was inactive.
